Measured affinities in a library of Ab-14 heavy chain variants

Reference: Engelhart et al. 2022, doi:10.1038/s41597-022-01779-4. File: FLAb, binding data.

Binding partner: SARS-CoV-2 spike HR2 peptide, sequence PDVDLGDISGINAS.

Parent: Ab-14, a human scFv built as VH, the linker GGGGSGGGGSGGGGS, VL. Only the CDRs of the heavy chain vary.
VH: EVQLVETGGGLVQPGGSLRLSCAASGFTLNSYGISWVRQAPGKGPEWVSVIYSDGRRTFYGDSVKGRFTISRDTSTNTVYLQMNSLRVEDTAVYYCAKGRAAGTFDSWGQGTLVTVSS
VL: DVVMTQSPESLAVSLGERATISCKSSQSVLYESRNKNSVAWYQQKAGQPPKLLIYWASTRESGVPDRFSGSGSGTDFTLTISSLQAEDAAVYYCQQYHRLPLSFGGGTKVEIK

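The starting antibody came from a phage panning campaign against this peptide. Variants in AAYL49 differ from the parent at up to three CDR positions; double and triple changes were sampled at random. AlphaSeq pools MATa yeast showing the antibodies with MATalpha yeast showing the peptide. Pairs that bind mate more often; barcode pairs of the diploids are counted by sequencing. Scores were corrected for input abundance and mapped to Kd with protein pairs of known affinity run in the same pool. There are three technical replicates.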

Changes read parent residue, position, new residue, counted from the first residue of the VH shown. All variants listed here change R56 of the VH, counted from its first residue. The read-out is the apparent dissociation constant on a log10 scale (nM): the lower, the stronger. Averages over replicates are reported, and they cover detected replicates only. "nd" means that the variant was in the library but no mating with the target was seen in that replicate; the authors take this as a sign of poor binding, and no number exists. The list is sorted by this average, lowest first, undetected variants last. Nonspecific signal, from three strains lacking the peptide, appeared in 15% of pairings of library AAYL49, centred on 4.06 (5% of these signals below 2.83); values are not corrected for it. Also given: how often the same scFv was detected with the empty control strains.

With S53A/R56Q/A102S the result was 0.20, 0.55, 0.47 (mean 0.41; controls 1 of 9). For V50E/R56F/S107R, the assay gave nd, 2.70, nd (controls 2 of 9). With G55N/R56T/A102M the result was 3.38, nd, nd (controls 2 of 9). Variant L29C/Y52L/R56P showed nd, nd, 3.44 (controls 4 of 9). With I51F/R56A the result was nd, nd, 3.74 (controls 1 of 9). With I34V/R56K/A102H the result was 4.66, 3.85, nd (mean 4.26; controls 4 of 9). With F27R/R56Q/V64D the result was nd, 4.34, nd (controls 1 of 9). With R56A/G61I/D62I the result was nd, 4.48, nd (controls 1 of 9).

For N30Y/Y52R/R56L, the assay gave 4.25, 4.67, 5.17 (mean 4.70; controls 2 of 9). Variant T28M/R56D/V64N gave 5.46, nd, 4.53 (mean 5.00; controls 5 of 9). With S35I/R56A/F59E the result was nd, 5.02, nd (controls 2 of 9). For G26V/R56S/D62I, the assay gave nd, 5.03, nd (controls 2 of 9). Variant G33S/R56C/S107V showed nd, nd, nd (controls 0 of 9). Variant R56C/Y60H/A101I showed nd, nd, nd (controls 0 of 9). For R56E/A101Q, the assay gave nd, nd, nd (controls 1 of 9). Variant R56F/Y60L/A102K showed nd, nd, nd (controls 1 of 9).

Variant S35I/V50W/R56T showed nd, nd, nd (controls 3 of 9). Variant S35L/D54R/R56Q gave nd, nd, nd (controls 2 of 9). Variant R56F/F59V/D106L gave nd, nd, nd (controls 1 of 9). With R56E/G61W the result was nd, nd, nd (controls 1 of 9). Variant R56I/G99Y gave nd, nd, nd (controls 0 of 9). Variant R56A/R57H/T58C gave nd, nd, nd (controls 0 of 9). With S35R/R56F/S63Q the result was nd, nd, nd (controls 1 of 9). Variant R56G/S63R showed nd, nd, nd (controls 0 of 9).

For R56Q/G99Q/A101P, the assay gave nd, nd, nd (controls 0 of 9). With R56P/Y60P/D62N the result was nd, nd, nd (controls 1 of 9). For D54G/R56D/R57E, the assay gave nd, nd, nd (controls 0 of 9). With I34F/R56L/K65Y the result was nd, nd, nd (controls 1 of 9). Variant S31Y/R56Y/T58P showed nd, nd, nd (controls 0 of 9). With F27C/R56S/G61N the result was nd, nd, nd (controls 1 of 9).

The first 2 entries again:

| changes | replicates, log10 nM | log10 Kd (nM), mean | empty controls |
|---|---|---|---|
| S53A/R56Q/A102S | 0.20, 0.55, 0.47 | 0.41 | 1/9 |
| V50E/R56F/S107R | nd, 2.70, nd | 2.70 | 2/9 |